For assay [1], the target named is hu i-20S β5i (Homo sapiens, UniProt P20618+P28062). Briefly: Dipeptide boronates IC50 vs hu i-20S β5i.
Assay [2] deals with hu c-20S β5c (Homo sapiens, UniProt P20618+P28074). Briefly: Dipeptide boronates IC50 vs hu c-20S β5c. The settings on record: read-out: IC50 c-20S β5i.

The term IC50 denotes the concentration that gives 50% inhibition. With `CC(=O)N[C@@H](Cc1ccccc1)C(=O)NC(Cc1cccc2ccccc12)B(O)O` (stereo partly drawn), the IC50 in assay [1] (read-out: IC50 i-20S β5i) was 8.4 nM; in assay [2] it was 143 nM. Further, in assay [1] (selectivity index hu i-20S β5i over hu c-20S β5c), the Ratio amounted to 17.1.

(Values after patent USRE49816E1, “Dipeptides as inhibitors of human immunoproteasomes” (CORNELL UNIVERSITY, priority 2014, dated 2024).)
